Laboratory results: patent US20230241187A1

Assays:
insulin receptor (IR) [1] = experiment: competition ELISA, plate-bound Insulin-R, 20 nM insulin-biotin, competitor 4000 nM, replicate 1
insulin receptor (IR) [2] = experiment: competition ELISA, plate-bound Insulin-R, 20 nM insulin-biotin, competitor 4000 nM, replicate 2
insulin receptor (IR) [3] = experiment: competition ELISA, plate-bound Insulin-R, 20 nM insulin-biotin, competitor 1000 nM, replicate 1
insulin receptor (IR) [4] = experiment: competition ELISA, plate-bound Insulin-R, 20 nM insulin-biotin, competitor 31.25 nM, average
insulin receptor (IR) [5] = experiment: competition ELISA, plate-bound Insulin-R, 20 nM insulin-biotin, competitor 250 nM, replicate 1
insulin receptor (IR) [6] = experiment: competition ELISA, plate-bound Insulin-R, 20 nM insulin-biotin, competitor 1000 nM, average
insulin receptor (IR) [7] = experiment: competition ELISA, plate-bound Insulin-R, 20 nM insulin-biotin, competitor 2000 nM, average
insulin receptor (IR) [8] = experiment: competition ELISA, plate-bound Insulin-R, 20 nM insulin-biotin, competitor 500 nM, average
insulin receptor (IR) [9] = experiment: competition ELISA, plate-bound Insulin-R, 20 nM insulin-biotin, competitor 125 nM, average
insulin receptor (IR) [10] = experiment: competition ELISA, plate-bound Insulin-R, 20 nM insulin-biotin, competitor 15.625 nM, average
insulin receptor (IR) [11] = experiment: competition ELISA, plate-bound Insulin-R, 20 nM insulin-biotin, competitor 500 nM, replicate 1
insulin receptor (IR) [12] = experiment: competition ELISA, plate-bound Insulin-R, 20 nM insulin-biotin, competitor 31.25 nM, replicate 2
insulin receptor (IR) [13] = experiment: competition ELISA, plate-bound Insulin-R, 20 nM insulin-biotin, competitor 250 nM, replicate 2
insulin receptor (IR) [14] = experiment: competition ELISA, plate-bound Insulin-R, 20 nM insulin-biotin, competitor 3.90625 nM, replicate 2
insulin receptor (IR) [15] = experiment: competition ELISA, plate-bound Insulin-R, 20 nM insulin-biotin, competitor 2000 nM, replicate 2
insulin receptor (IR) [16] = experiment: competition ELISA, plate-bound Insulin-R, 20 nM insulin-biotin, competitor 7.8125 nM, replicate 2
insulin receptor (IR) [17] = experiment: competition ELISA, plate-bound Insulin-R, 20 nM insulin-biotin, competitor 7.8125 nM, replicate 1
insulin receptor (IR) [18] = experiment: competition ELISA, plate-bound Insulin-R, 20 nM insulin-biotin, competitor 7.8125 nM, average
insulin receptor (IR) [19] = experiment: competition ELISA, plate-bound Insulin-R, 20 nM insulin-biotin, competitor 250 nM, average
insulin receptor (IR) [20] = experiment: competition ELISA, plate-bound Insulin-R, 20 nM insulin-biotin, competitor 4000 nM, average
insulin receptor (IR) [21] = experiment: competition ELISA, plate-bound Insulin-R, 20 nM insulin-biotin, competitor 62.5 nM, average
insulin receptor (IR) [22] = experiment: competition ELISA, plate-bound Insulin-R, 20 nM insulin-biotin, competitor 125 nM, replicate 2
insulin receptor (IR) [23] = experiment: competition ELISA, plate-bound Insulin-R, 20 nM insulin-biotin, competitor 15.625 nM, replicate 2
insulin receptor (IR) [24] = experiment: competition ELISA, plate-bound Insulin-R, 20 nM insulin-biotin, competitor 1000 nM, replicate 2
insulin receptor (IR) [25] = experiment: competition ELISA, plate-bound Insulin-R, 20 nM insulin-biotin, competitor 500 nM, replicate 2
insulin receptor (IR) [26] = experiment: competition ELISA, plate-bound Insulin-R, 20 nM insulin-biotin, competitor 31.25 nM, replicate 1
insulin receptor (IR) [27] = experiment: competition ELISA, plate-bound Insulin-R, 20 nM insulin-biotin, competitor 15.625 nM, replicate 1
insulin receptor (IR) [28] = experiment: competition ELISA, plate-bound Insulin-R, 20 nM insulin-biotin, competitor 3.90625 nM, replicate 1
insulin receptor (IR) [29] = experiment: competition ELISA, plate-bound Insulin-R, 20 nM insulin-biotin, competitor 125 nM, replicate 1
insulin receptor (IR) [30] = experiment: competition ELISA, plate-bound Insulin-R, 20 nM insulin-biotin, competitor 62.5 nM, replicate 1
insulin receptor (IR) [31] = experiment: competition ELISA, plate-bound Insulin-R, 20 nM insulin-biotin, competitor 2000 nM, replicate 1
insulin receptor (IR) [32] = experiment: competition ELISA, plate-bound Insulin-R, 20 nM insulin-biotin, competitor 3.90625 nM, average
insulin receptor (IR) [33] = experiment: competition ELISA, plate-bound Insulin-R, 20 nM insulin-biotin, competitor 62.5 nM, replicate 2
[34] = target: CI-MPR on rat L6 myoblasts (rat); experiment: cell-based or functional assay

Q: For “ZC-701 (GILTΔ2-7-GAA70-952) (from UniProt P10253 70-952) (enzyme)”, which Chemiluminescence Intensity (insulin receptor (IR) [1]) is on record?
A: 191

Q: And the Chemiluminescence Intensity (insulin receptor (IR) [2])?
A: 250

Q: And the Chemiluminescence Intensity (insulin receptor (IR) [3])?
A: 526

Q: And the Chemiluminescence Intensity (insulin receptor (IR) [4])?
A: 1110

Q: And the Chemiluminescence Intensity (insulin receptor (IR) [5])?
A: 800

Q: What about the Chemiluminescence Intensity (insulin receptor (IR) [6]) of the same substance?
A: 504

Q: And the Chemiluminescence Intensity (insulin receptor (IR) [7])?
A: 358

Q: What about the Chemiluminescence Intensity (insulin receptor (IR) [8]) of the same substance?
A: 744

Q: And the Chemiluminescence Intensity (insulin receptor (IR) [9])?
A: 1180

Q: And the Chemiluminescence Intensity (insulin receptor (IR) [10])?
A: 1470

Q: What about the Chemiluminescence Intensity (insulin receptor (IR) [11]) of the same substance?
A: 715

Q: What about the Chemiluminescence Intensity (insulin receptor (IR) [12]) of the same substance?
A: 968

Q: And the Chemiluminescence Intensity (insulin receptor (IR) [13])?
A: 767

Q: And the Chemiluminescence Intensity (insulin receptor (IR) [14])?
A: 1230

Q: What about the Chemiluminescence Intensity (insulin receptor (IR) [15]) of the same substance?
A: 329

Q: What about the Chemiluminescence Intensity (insulin receptor (IR) [16]) of the same substance?
A: 1120

Q: What about the Chemiluminescence Intensity (insulin receptor (IR) [17]) of the same substance?
A: 1240

Q: And the Chemiluminescence Intensity (insulin receptor (IR) [18])?
A: 1180

Q: What about the Chemiluminescence Intensity (insulin receptor (IR) [19]) of the same substance?
A: 784

Q: And the Chemiluminescence Intensity (insulin receptor (IR) [20])?
A: 220

Q: And the Chemiluminescence Intensity (insulin receptor (IR) [21])?
A: 1070

Q: And the Chemiluminescence Intensity (insulin receptor (IR) [22])?
A: 1070

Q: And the Chemiluminescence Intensity (insulin receptor (IR) [23])?
A: 1470

Q: What about the Chemiluminescence Intensity (insulin receptor (IR) [24]) of the same substance?
A: 483

Q: And the Chemiluminescence Intensity (insulin receptor (IR) [25])?
A: 774

Q: What about the Chemiluminescence Intensity (insulin receptor (IR) [26]) of the same substance?
A: 1250

Q: What about the Chemiluminescence Intensity (insulin receptor (IR) [27]) of the same substance?
A: 1470

Q: And the Chemiluminescence Intensity (insulin receptor (IR) [28])?
A: 1450

Q: What about the Chemiluminescence Intensity (insulin receptor (IR) [29]) of the same substance?
A: 1280

Q: What about the Chemiluminescence Intensity (insulin receptor (IR) [30]) of the same substance?
A: 1120

Q: And the Chemiluminescence Intensity (insulin receptor (IR) [31])?
A: 387

Q: And the Chemiluminescence Intensity (insulin receptor (IR) [32])?
A: 1340

Q: What about the Chemiluminescence Intensity (insulin receptor (IR) [33]) of the same substance?
A: 1024

Q: And the Kuptake (uptake into rat L6 myoblasts; partially purified ZC-701) [34]?
A: 5 nM

Q: And the Kuptake (uptake into rat L6 myoblasts; purified ZC-701) [34]?
A: 2.6 nM
